{"sequences": {"note": "Amino acid sequences for entries named in this document (tags omitted).", "UniProt P11309, whole entry": "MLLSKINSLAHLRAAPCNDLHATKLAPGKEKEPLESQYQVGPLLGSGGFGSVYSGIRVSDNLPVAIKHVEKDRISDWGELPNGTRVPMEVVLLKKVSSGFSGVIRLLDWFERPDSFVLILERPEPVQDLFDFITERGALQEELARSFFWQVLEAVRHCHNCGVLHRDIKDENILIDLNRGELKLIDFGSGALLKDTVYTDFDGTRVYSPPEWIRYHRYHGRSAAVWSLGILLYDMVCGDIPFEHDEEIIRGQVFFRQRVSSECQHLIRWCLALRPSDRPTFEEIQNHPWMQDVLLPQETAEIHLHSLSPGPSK"}, "source": "patent US9434725B2", "about": "“5-azaindazole compounds and methods of use” (priority 2012, dated 2016)", "key": {"[1]": {"molecular_target": "PIM1 (Homo sapiens (Human), UniProt P11309)", "format": "biochemical", "details": "10 μM ATP, 90 min, room temperature; read-out: PIM1 LC3K (KI)", "experimental": "A fluorescent-labeled Pim-specific peptide substrate, was custom synthesized by American Peptide Company (Sunnyvale, Calif.). Reaction Buffer contained 10 mM HEPES, pH 7.2, 10 mM MgCl2, 0.01% Tween 20, 2 mM DTT. Termination Buffer contained 190 mM HEPES, pH 7.2, 0.015% Brij-35, 0.2% Coating Reagent 3 (Caliper Life Sciences, Hopkinton, Mass.), 20 mM EDTA. Separation Buffer contained 100 mM HEPES, pH 7.2, 0.015% Brij-35, 0.1% Coating Reagent 3, 1:200 Coating Reagent 8 (Caliper Life Sciences, Hopkinton, Mass.), 10 mM EDTA and 5% DMSO.\nPIM reactions were carried out in a final volume of 10 μL per well in a 384-well plate. […] After 90 minutes of incubation at room temperature, the phosphorylation reaction was stopped by the addition of 10 μL Termination Buffer. The product and substrate in each independent reaction were separated on a 12-sipper microfluidic chip (Caliper Life Sciences, Hopkinton, Mass.) run on a Caliper LC3000® (Caliper Life Sciences, Hopkinton, Mass.). The separation of product and substrate was optimized by choosing voltages and pressure using Caliper's Optimizer software (Hopkinton, Mass.). The separation conditions used a downstream voltage of −500V, an upstream voltage of −2150V, and a screening pressure of −1.2 psi. […] Substrate conversion was calculated from the electropherogram using HTS Well Analyzer software (Caliper Life Sciences, Hopkinton, Mass.). Ki values for the test compound were calculated."}, "[2]": {"tested_on": "BaF3 PIM1 cells", "assay": "In vitro cell proliferation potency assay (Cell Titer Glo), BaF3 PIM1 cells", "format": "cell-based, murine", "details": "read-out: Prolif BaF3_PIM 1 (IC50)", "experimental": "BaF3 parental line was obtained from the DSMZ repository. BaF3 lines transfected with PIM1 or PIM2 were generated. Mouse IL-3 was purchased from R&D Systems. G418 was purchased from Clontech. Media for BaF3 parental line contained RPMI, 10% FBS, 2 mM L-Glutamine, 2 ng/mL mIL-3. Media for BaF3 PIM1 & 2 lines contained RPMI, 10% FBS, 2 mM L-Glutamine, […]. Media for MM1.S (multiple myeloma cells) line contained RPMI, 10% FBS, 2 mM L-Glutamine.\nBaF3, a murine interleukin-3 dependent pro-B cell line, parental cells, BaF3 PIM1 cells, BaF3 PIM2 cells, and MM1.S (multiple myeloma) cells were seeded at 2 k/well, 5 k/well, 5 k/well, and 10 k/well respectively, in a 384-well plate, at 45 μL/well. Test compound was added at 5 μL/well. BaF3 cells (parental and transfected) were incubated overnight, while MM1.S cells were incubated for 72 hours at 37° C., 5% CO2. CELL TITER GLO® Reagent (Promega) was added at 50 μL/well, the plates were incubated for 30 minutes, and their luminescence read on an HT Analyst. IC50/EC50 values for the test compound were calculated."}, "[3]": {"details": "Mus musculus, BaF3, BaF3 cells transfected with PIM1, incubated overnight"}, "[4]": {"details": "BaF3 cells transfected with PIM1, incubated overnight"}}, "note": "pIC50, pKi: −log10 of the molar value. Read-outs that look alike come from different tables or passages of the source.", "data": [{"molecule": "CCc1cncc(-c2cc3c(cn2)cnn3-c2cccc(N3CCNC[C@H](O)C3)n2)c1", "note": "(single isomer, unassigned) [Compound 121]", "values": [{"measurement": "pKi", "setting": "[1]", "value": 9.80}]}, {"molecule": "CCc1cncc(-c2cc3c(cn2)cnn3-c2cccc(N3CCNC[C@@H](O)C3)n2)c1", "note": "(single isomer, unassigned) [Compound 122]", "values": [{"measurement": "pKi", "setting": "[1]", "value": 10.25}, {"measurement": "pIC50", "setting": "[2]; [3]", "value": 7.15}]}, {"molecule": "Cc1cncc(-c2cc3c(cn2)cnn3-c2cccc(N3CCCC(N)C3C)n2)n1", "note": "(single isomer, unassigned) [Compound 203, 2-methyl-1-[6-[6-(6-methylpyrazin-2-yl)pyrazolo[4,3-c]pyridin-1-yl]-2-pyridyl]piperidin-3-amine]", "values": [{"measurement": "pKi", "setting": "[1]", "value": 9.43}, {"measurement": "pIC50", "setting": "[2]; [4]", "value": 5.70}]}, {"molecule": "Cc1cncc(-c2cc3c(cn2)cnn3-c2cccc(N3CCCC(N)C3C)n2)n1", "note": "(single isomer, unassigned) [Compound 204, 2-methyl-1-[6-[6-(6-methylpyrazin-2-yl)pyrazolo[4,3-c]pyridin-1-yl]-2-pyridyl]piperidin-3-amine]", "values": [{"measurement": "pKi", "setting": "[1]", "value": 10.47}, {"measurement": "pIC50", "setting": "[2]; [4]", "value": 6.16}]}, {"molecule": "Cc1cncc(-c2cc3c(cn2)cnn3-c2cccc(C3CCCC(N)C3)n2)n1", "note": "(single isomer, unassigned) [Compound 213, 3-[6-[6-(6-methylpyrazin-2-yl)pyrazolo[4,3-c]pyridin-1-yl]-2-pyridyl]cyclohexanamine]", "values": [{"measurement": "pKi", "setting": "[1]", "value": 10.32}, {"measurement": "pIC50", "setting": "[2]; [4]", "value": 6.50}]}, {"molecule": "CCn1cc(-c2cc3c(cn2)cnn3-c2cccc(N3CCNCC3)n2)cn1", "note": "[Compound 101, 6-(1-ethylpyrazol-4-yl)-1-(6-piperazin-1-yl-2-pyridyl)pyrazolo[4,3-c]pyridine]", "values": [{"measurement": "pKi", "setting": "[1]", "value": 9.09}, {"measurement": "pIC50", "setting": "[2]; [3]", "value": 5.77}]}, {"molecule": "CC(C)c1cncc(-c2cc3c(cn2)cnn3-c2cccc(N3CCCNCC3)n2)c1", "note": "[Compound 103, 1-(6-(1,4-diazepan-1-yl)pyridin-2-yl)-6-(5-isopropylpyridin-3-yl)-1H-pyrazolo[4,3-c]pyridine]", "values": [{"measurement": "pKi", "setting": "[1]", "value": 10.49}, {"measurement": "pIC50", "setting": "[2]; [3]", "value": 5.92}]}, {"molecule": "CC(C)c1cncc(-c2cc3c(cn2)cnn3-c2cccc(N3CCNCC3)n2)c1", "note": "[Compound 105, 6-(5-isopropylpyridin-3-yl)-1-(6-(piperazin-1-yl)pyridin-2-yl)-1H-pyrazolo[4,3-c]pyridine]", "values": [{"measurement": "pKi", "setting": "[1]", "value": 9.91}, {"measurement": "pIC50", "setting": "[2]; [3]", "value": 5.80}]}, {"molecule": "CC(C)c1cncc(-c2cc3c(cn2)cnn3-c2cccc(N3CCC[C@@H](N)C3)n2)c1", "note": "[Compound 107, (R)-1-(6-(6-(5-isopropylpyridin-3-yl)-1H-pyrazolo[4,3-c]pyridin-1-yl)pyridin-2-yl)piperidin-3-amine]", "values": [{"measurement": "pIC50", "setting": "[2]; [3]", "value": 5.62}]}, {"molecule": "CC(C)c1cncc(-c2cc3c(cn2)cnn3-c2cccc(N3CCC[C@H](N)C3)n2)c1", "note": "[Compound 108, (3S)-1-[6-[6-(5-isopropyl-3-pyridyl)pyrazolo[4,3-c]pyridin-1-yl]-2-pyridyl]piperidin-3-amine]", "values": [{"measurement": "pKi", "setting": "[1]", "value": 10.00}, {"measurement": "pIC50", "setting": "[2]; [3]", "value": 5.35}]}, {"molecule": "Cc1cc(-c2cc3c(cn2)cnn3-c2cccc(N3CCCNCC3)n2)sn1", "note": "[Compound 120, 5-[1-[6-(1 4-diazepan-1-yl)-2-pyridyl]pyrazolo[4,3-c]pyridin-6-yl]-3-methyl-isothiazole]", "values": [{"measurement": "pKi", "setting": "[1]", "value": 9.65}, {"measurement": "pIC50", "setting": "[2]; [3]", "value": 5.85}]}, {"molecule": "CCc1cncc(-c2cc3c(cn2)cnn3-c2ccc(C3CC3)c(N3CCC[C@H](N)C3)n2)c1", "note": "[Compound 139, (S)-1-(3-cyclopropyl-6-(6-(5-ethylpyridin-3-yl)-1H-pyrazolo[4,3-c]pyridin-1-yl)pyridin-2-yl)piperidin-3-amine]", "values": [{"measurement": "pKi", "setting": "[1]", "value": 10.48}, {"measurement": "pIC50", "setting": "[2]; [3]", "value": 5.64}]}, {"molecule": "Cc1cncc(-c2cc3c(cn2)cnn3-c2cccc(N3CCCNCC3)n2)c1", "note": "[Compound 141, 1-(6-(1,4-diazepan-1-yl)pyridin-2-yl)-6-(5-methylpyridin-3-yl)-1H-pyrazolo[4,3-c]pyridine]", "values": [{"measurement": "pKi", "setting": "[1]", "value": 10.07}, {"measurement": "pIC50", "setting": "[2]; [3]", "value": 6.00}]}, {"molecule": "c1cc(N2CCNCC2)nc(-n2ncc3cnc(-c4cnccn4)cc32)c1", "note": "[Compound 144, 1-(6-piperazin-1-yl-2-pyridyl)-6-pyrazin-2-yl-pyrazolo[4,3-c]pyridine]", "values": [{"measurement": "pKi", "setting": "[1]", "value": 9.75}, {"measurement": "pIC50", "setting": "[2]; [3]", "value": 6.41}]}]}
